From patent publication US20250368666A1, “INDAZOLE COMPOUNDS” (TYRA BIOSCIENCES, INC., priority 2022, published 2025) come the findings set out here.

Chains of the proteins cited; added tags and fusions are not shown. Lines headed by an entry give the natural chain unless they say otherwise; changes in a name come on top. Residues count along the entry.
UniProt P11362, 22-822 limits assumed: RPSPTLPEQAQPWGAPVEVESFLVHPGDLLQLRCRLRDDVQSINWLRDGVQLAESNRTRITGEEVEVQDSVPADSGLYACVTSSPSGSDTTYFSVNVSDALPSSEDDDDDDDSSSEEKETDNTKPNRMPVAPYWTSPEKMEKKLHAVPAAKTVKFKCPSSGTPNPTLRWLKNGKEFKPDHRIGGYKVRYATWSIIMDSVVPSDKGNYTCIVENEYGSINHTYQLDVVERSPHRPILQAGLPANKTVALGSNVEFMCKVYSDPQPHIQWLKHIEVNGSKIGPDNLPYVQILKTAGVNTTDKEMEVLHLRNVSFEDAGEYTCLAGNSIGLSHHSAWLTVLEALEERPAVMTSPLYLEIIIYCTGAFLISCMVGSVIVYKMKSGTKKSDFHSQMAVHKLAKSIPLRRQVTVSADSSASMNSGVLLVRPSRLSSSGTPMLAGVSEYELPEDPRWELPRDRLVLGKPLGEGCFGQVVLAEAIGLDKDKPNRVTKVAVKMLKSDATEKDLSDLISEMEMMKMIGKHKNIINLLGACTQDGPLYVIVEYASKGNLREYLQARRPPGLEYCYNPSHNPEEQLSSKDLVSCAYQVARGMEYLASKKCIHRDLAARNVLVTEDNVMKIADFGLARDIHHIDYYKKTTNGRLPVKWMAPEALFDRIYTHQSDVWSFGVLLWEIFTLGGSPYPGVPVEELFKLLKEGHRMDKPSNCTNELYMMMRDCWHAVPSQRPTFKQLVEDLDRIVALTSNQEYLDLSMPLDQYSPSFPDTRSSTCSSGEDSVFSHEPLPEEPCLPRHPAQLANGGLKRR
UniProt P22607, 23-806 limits assumed: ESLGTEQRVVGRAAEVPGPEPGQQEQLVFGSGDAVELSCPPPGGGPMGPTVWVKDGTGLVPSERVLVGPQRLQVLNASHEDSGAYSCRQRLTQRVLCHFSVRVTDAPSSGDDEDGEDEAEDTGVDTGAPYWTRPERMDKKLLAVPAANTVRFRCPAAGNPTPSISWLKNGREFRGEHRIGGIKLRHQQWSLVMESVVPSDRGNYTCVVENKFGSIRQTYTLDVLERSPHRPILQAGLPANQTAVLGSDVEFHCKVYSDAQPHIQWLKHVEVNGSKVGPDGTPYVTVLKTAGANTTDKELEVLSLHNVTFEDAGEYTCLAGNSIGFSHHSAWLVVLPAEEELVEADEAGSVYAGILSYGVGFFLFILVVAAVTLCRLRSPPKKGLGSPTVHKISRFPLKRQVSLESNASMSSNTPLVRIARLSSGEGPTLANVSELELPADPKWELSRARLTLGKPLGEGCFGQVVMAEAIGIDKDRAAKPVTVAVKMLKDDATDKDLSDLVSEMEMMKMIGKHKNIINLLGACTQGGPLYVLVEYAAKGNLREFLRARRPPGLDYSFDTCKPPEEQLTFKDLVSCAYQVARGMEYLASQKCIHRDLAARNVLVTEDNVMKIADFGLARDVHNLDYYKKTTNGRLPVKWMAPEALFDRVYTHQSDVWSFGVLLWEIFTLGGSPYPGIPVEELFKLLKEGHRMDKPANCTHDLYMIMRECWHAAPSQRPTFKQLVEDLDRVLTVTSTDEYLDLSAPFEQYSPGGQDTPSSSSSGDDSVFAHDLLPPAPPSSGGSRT
UniProt P22607, 23-806 V555M limits assumed: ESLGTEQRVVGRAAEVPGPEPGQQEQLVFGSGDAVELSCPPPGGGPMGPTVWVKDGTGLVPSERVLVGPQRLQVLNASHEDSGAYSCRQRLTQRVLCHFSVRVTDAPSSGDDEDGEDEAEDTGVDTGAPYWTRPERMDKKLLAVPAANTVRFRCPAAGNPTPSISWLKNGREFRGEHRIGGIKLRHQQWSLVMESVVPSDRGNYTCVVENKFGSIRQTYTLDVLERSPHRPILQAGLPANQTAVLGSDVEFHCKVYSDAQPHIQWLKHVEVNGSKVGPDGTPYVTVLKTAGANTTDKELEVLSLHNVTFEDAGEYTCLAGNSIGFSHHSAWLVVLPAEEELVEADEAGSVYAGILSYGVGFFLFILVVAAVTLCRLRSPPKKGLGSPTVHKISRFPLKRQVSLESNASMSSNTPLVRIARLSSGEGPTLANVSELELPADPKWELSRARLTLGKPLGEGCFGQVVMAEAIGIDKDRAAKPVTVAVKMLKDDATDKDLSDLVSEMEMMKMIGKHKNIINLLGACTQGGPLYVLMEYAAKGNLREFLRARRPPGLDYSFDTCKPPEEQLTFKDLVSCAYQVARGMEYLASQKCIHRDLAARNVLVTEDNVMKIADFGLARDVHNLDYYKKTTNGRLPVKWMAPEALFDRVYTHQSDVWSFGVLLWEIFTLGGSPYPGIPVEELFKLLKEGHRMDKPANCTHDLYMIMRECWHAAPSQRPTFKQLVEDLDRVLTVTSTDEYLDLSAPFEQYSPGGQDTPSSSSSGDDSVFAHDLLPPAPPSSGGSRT
UniProt P22455, 22-802 limits assumed: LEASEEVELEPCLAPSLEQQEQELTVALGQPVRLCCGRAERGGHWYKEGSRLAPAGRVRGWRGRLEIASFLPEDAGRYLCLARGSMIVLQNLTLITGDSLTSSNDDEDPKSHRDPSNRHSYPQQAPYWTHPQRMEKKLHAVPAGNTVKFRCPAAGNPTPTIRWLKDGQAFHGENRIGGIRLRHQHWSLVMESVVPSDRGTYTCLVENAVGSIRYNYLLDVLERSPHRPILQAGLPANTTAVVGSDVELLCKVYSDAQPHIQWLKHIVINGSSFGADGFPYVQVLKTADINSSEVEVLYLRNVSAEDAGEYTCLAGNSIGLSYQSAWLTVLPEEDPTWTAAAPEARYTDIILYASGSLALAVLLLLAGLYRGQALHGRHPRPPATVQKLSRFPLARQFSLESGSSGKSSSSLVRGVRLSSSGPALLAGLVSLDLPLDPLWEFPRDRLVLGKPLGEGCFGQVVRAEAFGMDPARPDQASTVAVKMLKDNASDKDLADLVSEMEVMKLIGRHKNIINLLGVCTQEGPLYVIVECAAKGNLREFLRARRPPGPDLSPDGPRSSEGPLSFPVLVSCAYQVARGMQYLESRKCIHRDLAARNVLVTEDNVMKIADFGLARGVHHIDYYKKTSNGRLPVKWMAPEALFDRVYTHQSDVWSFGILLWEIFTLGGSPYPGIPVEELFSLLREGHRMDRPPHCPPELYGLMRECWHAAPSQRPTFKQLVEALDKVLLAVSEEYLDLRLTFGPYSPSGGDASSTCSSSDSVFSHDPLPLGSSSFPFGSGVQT
UniProt P21802, 22-821 limits assumed: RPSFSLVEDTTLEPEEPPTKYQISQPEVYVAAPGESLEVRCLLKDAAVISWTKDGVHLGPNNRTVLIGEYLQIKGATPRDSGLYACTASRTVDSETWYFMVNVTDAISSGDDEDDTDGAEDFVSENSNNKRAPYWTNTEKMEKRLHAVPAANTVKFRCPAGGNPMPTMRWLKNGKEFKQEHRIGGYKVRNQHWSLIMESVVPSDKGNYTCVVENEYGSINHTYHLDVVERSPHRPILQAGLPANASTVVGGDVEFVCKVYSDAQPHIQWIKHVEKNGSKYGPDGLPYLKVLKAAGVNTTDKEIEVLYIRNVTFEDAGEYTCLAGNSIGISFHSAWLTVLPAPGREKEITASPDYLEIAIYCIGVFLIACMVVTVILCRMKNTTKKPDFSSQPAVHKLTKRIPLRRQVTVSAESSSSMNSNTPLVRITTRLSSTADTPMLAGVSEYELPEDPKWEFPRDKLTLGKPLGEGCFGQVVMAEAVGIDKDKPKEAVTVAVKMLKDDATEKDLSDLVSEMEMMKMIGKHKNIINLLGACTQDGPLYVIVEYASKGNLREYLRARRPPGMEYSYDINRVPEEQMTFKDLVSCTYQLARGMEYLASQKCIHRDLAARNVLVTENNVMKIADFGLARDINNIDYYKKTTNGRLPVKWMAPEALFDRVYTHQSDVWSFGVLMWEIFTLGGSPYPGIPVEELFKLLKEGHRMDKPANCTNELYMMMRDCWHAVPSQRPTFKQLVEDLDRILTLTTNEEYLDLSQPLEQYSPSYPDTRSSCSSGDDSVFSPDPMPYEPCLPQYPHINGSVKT

Read-outs that look alike come from different tables or passages of the source.

The target of assay [1] is FGFR1 (Homo sapiens, UniProt P11362). The experiment in a line: Kinase binding assay (kinase-tagged T7 phage, affinity beads, qPCR), Kd. The conditions noted are these: read-out: FGFR1 (Kd nM). The protocol:
(§1) Kinase-tagged T7 phage strains were prepared in an E. coli host derived from the BL21 strain. E. coli were grown to log-phase and infected with T7 phage and incubated with shaking at 32° C. until lysis. The lysates were centrifuged and filtered to remove cell debris. Streptavidin-coated magnetic beads were treated with biotinylated small molecule ligands for 30 minutes at room temperature to generate affinity resins for kinase assays. The liganded beads were blocked with excess biotin and washed with blocking buffer SeaBlock (Pierce), 1% BSA, 0.05% Tween 20, 1 mM DTT to remove unbound ligand and to reduce non-specific binding. Binding reactions were assembled by combining kinases, liganded affinity beads, and test compounds in 1× binding buffer (20% SeaBlock, 0.17×PBS, 0.05% Tween 20, 6 mM DTT).
(§2) Test compounds were prepared as 111× stocks in 100% DMSO. Kds were determined using an 11-point 3-fold compound dilution series with three DMSO control points. All compounds for Kd measurements are distributed by acoustic transfer (non-contact dispensing) in 100% DMSO. The compounds were then diluted directly into the assays such that the final concentration of DMSO was 0.9%. All reactions performed in polypropylene 384-well plate. Each was a final volume of 0.02 ml. The assay plates were incubated at room temperature with shaking for 1 hour and the affinity beads were washed with wash buffer (lx PBS, 0.05% Tween 20). The beads were then re-suspended in elution buffer (lx PBS, 0.05% Tween 20, 0.5 M non-biotinylated affinity ligand) and incubated at room temperature with shaking for 30 minutes. The kinase concentration in the eluates was measured by qPCR.
(§3) Binding constants were calculated with a standard dose-response curve using the Hill equation: […]
(§4) The Hill Slope was set to −1. Curves were fitted using a non-linear least square fit with the Levenberg-Marquardt algorithm.

Assay [2] addresses FGFR3 (Homo sapiens, UniProt P22607). Described as above. Conditions: read-out: FGFR3 (Kd nM).
Assay [3] has as its system MDA-MB-453 cell line (FGFR4-Y367C). The assay is described as follows: Cancer cell line cell viability assay (Cell Titer-Glo), 120 hr. The conditions noted are these: read-out: MDA-MB-453. The text has this:
(§5) Experimental Purpose: To detect the change of intracellular ATP by Cell Titer-Glo® and to evaluate the inhibitory effect of the compounds on cancer cell lines by determining the in vitro IC50 value of the compounds.
Cell Titer-Glo® 2.0 Luminescent cell viability assay reagent was purchased from Promega (Madison, WI). KG-1, KATO-III, and MDA-MB-453 cell lines were purchased from American Type Culture Collection (Manassas, VA). RT112/84 cell line was purchased from Millipore-Sigma (St. Louis, MO). HuH7 cells were purchased from Seikisui Xenotech (Kansas City, KS). RT112/84 and MDA-MB-453 cells were cultured in RPMI1640 media supplemented with 10% fetal bovine serum. KG-1 and KATO-III cell lines were cultured in IMDM media supplemented with 20% FBS. HuH7 cells were cultured in IMDM media supplemented with 10% FBS. […]
Cell Viability Assay Procedure: Cells were plated in 96-well clear bottom/white plates (Corning #3903) at a range of densities depending on the optimal assay window (5,000-20,000 cells/well in […] of media), incubated overnight. […] Luminescence was recorded by a Clariostar Plus Microplate Reader (BMG Labtech, Cary, NC). Cells were assessed as a percentage of DMSO only treated control cells. Curves were plotted and IC50 values were calculated using the GraphPad Prism 9 program based on a sigmoidal dose-response equation (log (inhibitor) vs. response—Variable slope, 4-parameter).

Assay [4] deals with RT112/84 cell line (FGFR3-fusion). The experiment in a line: Cancer cell line cell viability assay (Cell Titer-Glo), 72 hr. The conditions noted are these: read-out: RT112/84 IC50 nM.
Excerpt: as §5
(§6) Cell Titer-Glo® 2.0 Luminescent cell viability assay reagent was purchased from Promega (Madison, WI). KG-1, KATO-III, and MDA-MB-453 cell lines were purchased from American Type Culture Collection (Manassas, VA). RT112/84 cell line was purchased from Millipore-Sigma (St. Louis, MO). HuH7 cells were purchased from Seikisui Xenotech (Kansas City, KS). RT112/84 and MDA-MB-453 cells were cultured in RPMI1640 media supplemented with 10% fetal bovine serum. KG-1 and KATO-III cell lines were cultured in IMDM media supplemented with 20% FBS. HuH7 cells were cultured in IMDM media supplemented with 10% FBS. Cultures were maintained at 37° C. in a humidified atmosphere of 5% CO2 and 95% air.
(§7) Cell Viability Assay Procedure: Cells were plated in 96-well clear bottom/white plates (Corning #3903) at a range of densities depending on the optimal assay window (5,000-20,000 cells/well in […] of media), incubated overnight. The next day, test compound DMSO stock solutions were made at 10 mM and […] final concentration. Compounds were then added to cells in a 9-dose, 4-fold dilution series starting at 3 μM with an HP 300e Digital Dispenser (each dose was applied in triplicate). DMSO was backfilled to each well up to 301 nL total volume of test compound+DMSO, and a total of 301 nL DMSO was added to a control/no test compound well in triplicate. The cells in cell culture plates were incubated with the compounds at 37° C. and 5% CO2 for 72 hours-120 hours depending on the cell line. […] Luminescence was recorded by a Clariostar Plus Microplate Reader (BMG Labtech, Cary, NC). Cells were assessed as a percentage of DMSO only treated control cells. Curves were plotted and IC50 values were calculated using the GraphPad Prism 9 program based on a sigmoidal dose-response equation (log (inhibitor) vs. response—Variable slope, 4-parameter).
In general terms: ATP-based viability assays read luminescence as a measure of living cells.

Assay [5] concerns KG-1 cell line (FGFR 1-fusion). The description is as above. Conditions: read-out: KG-1 IC50 nM, KG-1 cell line (FGFR1-fusion).
Excerpt: as §5, §6, §7

Assay [6] has as its system KATO-III cell line (FGFR2 amplification). The description is as above. Conditions: read-out: Kato III IC50 nM.
Excerpt: as §5, §6, §7

For assay [7], the target named is FGFR4 (Homo sapiens, UniProt P22455). The experiment in a line: Kinase binding assay (kinase-tagged T7 phage, affinity beads, qPCR), Kd. The conditions noted are these: read-out: FGFR4 (Kd nM). As for the experimental part: as §1, §2, §3, §4
On the technique in general: Real-time PCR tracks product formation cycle by cycle.

Assay [8] deals with FGFR2 (Homo sapiens, UniProt P21802). The assay is described as above. The conditions noted are these: read-out: FGFR2 (Kd nM). As for the experimental part: as §1, §2, §3, §4
The target of assay [9] is FGFR3 (V555M) (Homo sapiens, UniProt P22607, V555M). The assay is described as above. The conditions noted are these: read-out: FGFR3 (V555M) (Kd nM); V555M mutant.
[10] abbreviates: kinase binding assay, 11-point 3-fold dilution series.

What is called Kd is the concentration at which binding is half-saturated. Consider `C[C@@H](Oc1ccc2[nH]nc(-c3cnc(N4CC[C@@](N)(Cc5ccn(C)n5)C4)c(F)c3)c2c1)c1c(Cl)cncc1Cl`, for which the Kd in [1] (setting [10]) and in assay [2] (setting [10]) was 1 to 50 nM in each case.
In the case of `C[C@@H](Oc1ccc2[nH]nc(-c3ccc(N4CC(N)(Cc5ccn(C)n5)C4)nc3)c2c1)c1c(Cl)cncc1Cl`, the Kd in assay [1] and in assay [2] was 1 to 50 nM in each case.
With `C[C@@H](Oc1ccc2[nH]nc(-c3ccc(N4CC(N)(c5cnn(C)c5)C4)nn3)c2c1)c1c(Cl)cncc1Cl`, the Kd in assay [1] and in assay [2] was 1 to 50 nM throughout. Moreover, the IC50 in assay [3] lay in the range of 200 to 1000 nM; in assay [4], 0.1 to 50 nM; in [5], 50 to 200 nM; in assay [6], 0.1 to 50 nM.
In the case of `C[C@@H](Oc1ccc2[nH]nc(-c3cnc(N4CC(C)(C(=O)NCCO)C4)c(C#N)c3)c2c1)c1c(Cl)cncc1Cl`, the Kd in assay [7] fell in the range of 1 to 50 nM; in assay [1], 50 to 300 nM; in assay [8] it was 50 to 300 nM; in assay [2], 1 to 50 nM; in [9], 1 to 50 nM.
